What was measured:
[1] = target: T1, CRF2R (Homo sapiens, UniProt Q13324); experiment: CRF2R agonist activation (EC50 / Emax), called comparative CRF binding; assay type: cell-based; conditions: for Emax: read-out: CRF2R Emax
T1 sequence (Q13324 1-411): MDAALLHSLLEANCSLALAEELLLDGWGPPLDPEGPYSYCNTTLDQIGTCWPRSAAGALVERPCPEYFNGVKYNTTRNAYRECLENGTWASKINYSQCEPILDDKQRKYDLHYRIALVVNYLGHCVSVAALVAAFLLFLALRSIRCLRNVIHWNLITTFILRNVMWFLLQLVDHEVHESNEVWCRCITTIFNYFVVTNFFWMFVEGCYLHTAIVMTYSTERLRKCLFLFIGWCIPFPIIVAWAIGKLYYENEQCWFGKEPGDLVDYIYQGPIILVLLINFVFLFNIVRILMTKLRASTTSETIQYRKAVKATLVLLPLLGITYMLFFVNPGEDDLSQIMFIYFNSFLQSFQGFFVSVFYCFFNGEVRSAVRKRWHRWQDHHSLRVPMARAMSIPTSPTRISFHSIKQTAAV
In short: (§1)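 CRFR-expressing cells + peptide vs vehicle; read-out cAMP (lysate assay) or CRE-linked reporter expression (luciferase, CAT, fluorescent protein, alkaline phosphatase, etc.). Signal compared against vehicle-treated cells.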

[2] = target: T2, CRF1R (Homo sapiens, UniProt P34998); experiment: CRF1R agonist activation (EC50 / Emax), called comparative CRF binding; assay type: cell-based; conditions: for EC50: CRF1R EC50; for Emax: read-out: CRF1R Emax
T2 sequence (P34998 24-415): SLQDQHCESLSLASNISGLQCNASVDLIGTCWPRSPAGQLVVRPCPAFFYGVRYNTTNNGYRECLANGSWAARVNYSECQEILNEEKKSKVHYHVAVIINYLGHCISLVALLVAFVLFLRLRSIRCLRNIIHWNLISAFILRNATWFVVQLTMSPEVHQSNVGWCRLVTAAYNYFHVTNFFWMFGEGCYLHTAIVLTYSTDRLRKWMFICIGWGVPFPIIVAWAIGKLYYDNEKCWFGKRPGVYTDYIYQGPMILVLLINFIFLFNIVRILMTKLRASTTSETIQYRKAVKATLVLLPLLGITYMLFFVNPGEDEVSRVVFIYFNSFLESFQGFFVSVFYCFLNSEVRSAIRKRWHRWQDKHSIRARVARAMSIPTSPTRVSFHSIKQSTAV
In short: as §1

Row | SMILES | EC50 [1] [nM] | EC50 [2] [nM] | Emax [2] [%] | Emax [1] [%]
1 | CC[C@H](C)[C@H](NC(=O)[C@@H](NC(=O)[C@H](CC(=O)O)NC(=O)[C@H](CC(C)C)NC(=O)[C@H](CC(C)C)NC(=O)[C@H](CCCNC(=N)N)NC(=O)[C@H](C)NC(=O)[C@H](CC(N)=O)NC(=O)[C@H](CC(N)=O)NC(=O)[C@H](C)NC(=O)[C@H](C)NC(=O)[C@H](CCC(N)=O)NC(=O)[C@H](CCC(N)=O)NC(=O)[C@H](CCCCN)NC(=O)[C@H](CCC(=O)O)NC(=O)[C@H](CCCCN)NC(=O)[C@H](CCC(=O)O)NC(=O)[C@H](CCC(N)=O)NC(=O)[C@H](CCCCN)NC(=O)[C@H](CCC(=O)O)NC(=O)[C@@H](NC(=O)[C@H](CCC(=O)O)NC(=O)[C@@H](NC(=O)[C@@H](NC(=O)[C@H](CCCCN)NC(=O)[C@H](CCCNC(=N)N)NC(=O)[C@H](CC(C)C)NC(=O)[C@H](CC(C)C)NC(=O)[C@H](CCC(N)=O)NC(=O)[C@H](Cc1ccccc1)NC(=O)[C@@H]1CCCN1C(=O)[C@H](CC(C)C)NC(=O)[C@H](CC(=O)O)NC(=O)[C@@H](NC(=O)[C@H](CO)NC(=O)[C@@H](NC(=O)[C@@H]1CCCN1C(=O)[C@@H]1CCCN1C(=O)CNC(=O)[C@@H]1CCC(=O)N1)[C@@H](C)CC)[C@@H](C)CC)C(C)C)[C@@H](C)CC)[C@@H](C)CC)[C@@H](C)O)C(N)=O [compound 278] | 19.6 | ≥ 1000 | 48.7 | –
2 | CC[C@H](C)[C@H](NC(=O)[C@@H](NC(=O)[C@H](CC(=O)O)NC(=O)[C@H](CC(C)C)NC(=O)[C@H](CC(C)C)NC(=O)[C@H](CC(C)C)NC(=O)[C@H](CCCNC(=N)N)NC(=O)[C@H](CC(N)=O)NC(=O)[C@H](CC(N)=O)NC(=O)[C@H](C)NC(=O)[C@H](C)NC(=O)[C@H](CCC(N)=O)NC(=O)[C@H](CCC(N)=O)NC(=O)[C@H](CCCCN)NC(=O)[C@H](CCC(=O)O)NC(=O)[C@H](CCCCN)NC(=O)[C@H](CCC(=O)O)NC(=O)[C@H](CCC(N)=O)NC(=O)[C@H](CCCCN)NC(=O)[C@H](CCC(=O)O)NC(=O)[C@@H](NC(=O)[C@H](CCC(=O)O)NC(=O)[C@@H](NC(=O)[C@H](CCSC)NC(=O)[C@H](CCCCN)NC(=O)[C@H](CCCNC(=N)N)NC(=O)[C@H](CC(C)C)NC(=O)[C@H](CC(C)C)NC(=O)[C@H](Cc1ccc(O)cc1)NC(=O)[C@@H](NC(=O)[C@@H]1CCCN1C(=O)[C@H](CC(C)C)NC(=O)[C@H](CC(=O)O)NC(=O)[C@@H](NC(=O)[C@H](CO)NC(=O)[C@@H](NC(=O)[C@@H]1CCCN1C(=O)[C@@H]1CCCN1C(=O)CNC(=O)[C@@H]1CCC(=O)N1)[C@@H](C)CC)[C@@H](C)CC)[C@@H](C)CC)[C@@H](C)CC)[C@@H](C)CC)[C@@H](C)O)C(N)=O [compound 79] | – | – | 8 | 100
3 | CC[C@H](C)[C@H](NC(=O)[C@@H](NC(=O)[C@H](CC(=O)O)NC(=O)[C@H](CC(C)C)NC(=O)[C@H](CC(C)C)NC(=O)[C@H](CC(C)C)NC(=O)[C@H](CCCNC(=N)N)NC(=O)[C@H](CC(N)=O)NC(=O)[C@H](CC(N)=O)NC(=O)[C@H](C)NC(=O)[C@H](C)NC(=O)[C@H](CCC(N)=O)NC(=O)[C@H](CCC(N)=O)NC(=O)[C@H](CCCCN)NC(=O)[C@H](CCC(=O)O)NC(=O)[C@H](CCCCN)NC(=O)[C@H](CCC(=O)O)NC(=O)[C@H](CCC(N)=O)NC(=O)[C@H](CCCCN)NC(=O)[C@H](CCC(=O)O)NC(=O)[C@@H](NC(=O)[C@H](CCC(=O)O)NC(=O)[C@@H](NC(=O)[C@H](CCSC)NC(=O)[C@H](CCCCN)NC(=O)[C@H](CCCNC(=N)N)NC(=O)[C@H](CC(C)C)NC(=O)[C@H](CC(C)C)NC(=O)[C@@H](NC(=O)[C@H](CC(C)C)NC(=O)[C@@H]1CCCN1C(=O)[C@H](CC(C)C)NC(=O)[C@H](CC(=O)O)NC(=O)[C@@H](NC(=O)[C@H](CO)NC(=O)[C@@H](NC(=O)[C@@H]1CCCN1C(=O)[C@@H]1CCCN1C(=O)CNC(=O)[C@@H]1CCC(=O)N1)[C@@H](C)CC)[C@@H](C)CC)[C@@H](C)CC)[C@@H](C)CC)[C@@H](C)CC)[C@@H](C)O)C(N)=O [compound 194] | – | – | 94 | 96
4 | CC[C@H](C)[C@H](NC(=O)[C@H](CCC(=O)O)NC(=O)[C@@H](NC(=O)[C@H](CCSC)NC(=O)[C@H](CCCCN)NC(=O)[C@H](CCCNC(=N)N)NC(=O)[C@H](CC(C)C)NC(=O)[C@H](CC(C)C)NC(=O)[C@H](CCC(N)=O)NC(=O)[C@H](Cc1ccccc1)NC(=O)[C@@H]1CCCN1C(=O)[C@H](CC(C)C)NC(=O)[C@H](CC(=O)O)NC(=O)[C@@H](NC(=O)[C@H](CO)NC(=O)[C@@H](NC(=O)[C@@H]1CCCN1C(=O)[C@@H]1CCCN1C(=O)CNC(=O)[C@@H]1CCC(=O)N1)[C@@H](C)CC)[C@@H](C)CC)[C@@H](C)CC)C(=O)N[C@@H](CCC(=O)O)C(=O)N[C@@H](CCCCN)C(=O)N[C@@H](CCC(N)=O)C(=O)N[C@@H](CCC(=O)O)C(=O)N[C@@H](CCCCN)C(=O)N[C@@H](CCC(=O)O)C(=O)N[C@@H](CCCCN)C(=O)N[C@@H](CCC(N)=O)C(=O)N[C@@H](CCC(N)=O)C(=O)N[C@@H](C)C(=O)N[C@H](C(=O)N[C@H](C(=O)N[C@@H](CC(N)=O)C(=O)N[C@@H](C)C(=O)N[C@@H](CCCNC(=N)N)C(=O)N[C@@H](CC(C)C)C(=O)N[C@@H](CC(C)C)C(=O)N[C@@H](CC(=O)O)C(=O)N[C@H](C(=O)N[C@H](C(N)=O)C(C)C)[C@@H](C)O)[C@@H](C)O)[C@@H](C)O [compound 20] | – | – | 60 | 99
5 | CC[C@H](C)[C@H](NC(=O)[C@@H](NC(=O)[C@H](CC(=O)O)NC(=O)[C@H](CC(C)C)NC(=O)[C@H](CC(C)C)NC(=O)[C@H](CC(C)C)NC(=O)[C@H](CCCNC(=N)N)NC(=O)[C@H](CC(N)=O)NC(=O)[C@H](CC(N)=O)NC(=O)[C@H](C)NC(=O)[C@H](C)NC(=O)[C@H](CCC(N)=O)NC(=O)[C@H](CCC(N)=O)NC(=O)[C@H](CCCCN)NC(=O)[C@H](CCC(=O)O)NC(=O)[C@H](CCCCN)NC(=O)[C@H](CCC(=O)O)NC(=O)[C@H](CCC(N)=O)NC(=O)[C@H](CCCCN)NC(=O)[C@H](CCC(=O)O)NC(=O)[C@@H](NC(=O)[C@H](CCC(=O)O)NC(=O)[C@@H](NC(=O)[C@H](CCSC)NC(=O)[C@H](CCCCN)NC(=O)[C@H](CCCNC(=N)N)NC(=O)[C@H](CC(C)C)NC(=O)[C@H](CC(C)C)NC(=O)[C@H](C)NC(=O)[C@H](Cc1c[nH]cn1)NC(=O)[C@@H]1CCCN1C(=O)[C@H](CC(C)C)NC(=O)[C@H](CC(=O)O)NC(=O)[C@@H](NC(=O)[C@H](CO)NC(=O)[C@@H](NC(=O)[C@@H]1CCCN1C(=O)[C@@H]1CCCN1C(=O)CNC(=O)[C@@H]1CCC(=O)N1)[C@@H](C)CC)[C@@H](C)CC)[C@@H](C)CC)[C@@H](C)CC)[C@@H](C)O)C(N)=O [compound 304] | 19.3 | 116 | 100 | 92.5
6 | CC[C@H](C)[C@H](NC(=O)[C@@H](NC(=O)[C@H](CC(=O)O)NC(=O)[C@H](CC(C)C)NC(=O)[C@H](CC(C)C)NC(=O)[C@H](CC(C)C)NC(=O)[C@H](CCCNC(=N)N)NC(=O)[C@H](CC(N)=O)NC(=O)[C@H](CC(N)=O)NC(=O)[C@H](C)NC(=O)[C@H](C)NC(=O)[C@H](CCC(N)=O)NC(=O)[C@H](CCC(N)=O)NC(=O)[C@H](CCCCN)NC(=O)[C@H](CCC(=O)O)NC(=O)[C@H](CCCCN)NC(=O)[C@H](CCC(=O)O)NC(=O)[C@H](CCC(N)=O)NC(=O)[C@H](CCCCN)NC(=O)[C@H](CCC(=O)O)NC(=O)[C@@H](NC(=O)[C@H](CCC(=O)O)NC(=O)[C@@H](NC(=O)[C@H](CCSC)NC(=O)[C@H](CCCCN)NC(=O)[C@H](CCCNC(=N)N)NC(=O)[C@H](CC(C)C)NC(=O)[C@H](CC(C)C)NC(=O)[C@H](Cc1ccccc1)NC(=O)[C@H](Cc1c[nH]cn1)NC(=O)[C@@H]1CCCN1C(=O)[C@H](CC(C)C)NC(=O)[C@H](CC(=O)O)NC(=O)[C@@H](NC(=O)[C@H](CO)NC(=O)[C@@H](NC(=O)[C@@H]1CCCN1C(=O)[C@@H]1CCCN1C(=O)CNC(=O)[C@@H]1CCC(=O)N1)[C@@H](C)CC)[C@@H](C)CC)[C@@H](C)CC)[C@@H](C)CC)[C@@H](C)O)C(N)=O [compound 219] | 7.8 | 80.9 | 100 | 98

From US6936585B2, “Corticotropin releasing factor 2 receptor agonists” (priority 2002, dated 2005)
